Test system: COc1cc(C=NN=Cc2cc(OC)c(O)c(OC)c2)cc(OC)c1O
Assay: purified protein
Details: pH 6.8, 50 mM phosphate, 37°C, 0.2 mM CuSO4

Row | Substance | Km | kcat | kcat/Km
1 | Klebsiella sp. 601 MCO (multicopper oxidase) (Klebsiella sp. 601; E369P/L367G/M362G/M368G/M376K/M379P/R361G) | 1.46 ± 0.02 µM | 4.3 ± 0.05 s⁻¹ | 2.95e+06 M⁻¹ s⁻¹
2 | Klebsiella sp. 601 MCO (multicopper oxidase) (Klebsiella sp. 601; E106F) | 1.57 ± 0.02 µM | 2.43 ± 0.02 s⁻¹ | 1.5e+06 M⁻¹ s⁻¹
